Earlier results on two compounds are cited in patent publication US20030073069A1, “Drug rescue by redesign of ADMET/PK properties” (priority 2001, published 2003).

Data set [1] deals with P450. The note with it: induction of a P450.
In data set [2] the test system is P450.

For `CN(C)CCOc1ccc(/C(=C(/CCCl)c2ccccc2)c2ccccc2)cc1` [toremifene], the “No. of currently known drug interactions that involve the compound, Induction” value in the data set on P450 [1] is reported as 3.

Take `CO[C@H]1/C=C/O[C@@]2(C)Oc3c(C)c(O)c4c(O)c(c(/C=N/N5CCN(C)CC5)c(O)c4c3C2=O)NC(=O)/C(C)=C\C=C\[C@H](C)[C@H](O)[C@@H](C)[C@@H](O)[C@@H](C)[C@H](OC(C)=O)[C@@H]1C` [rifampin]: the “No. of currently known drug interactions that involve the compound, Inhibition” value in the data set on P450 [2] was 2.
